#PSMs and % Coverage data for one substance are collected here from patent publication US20250164502A1, “Mutant Human Nax Proteins and Screening Methods” (Genentech, Inc., priority 2021, published 2025).

This assay concerns the target Full-length human NaX containing tandem 2x StrepII and 2xFLAG tags at its N-terminus (human) (UniProt Q01118). Briefly: LC-MS/MS of the NaX-containing SEC peak after FLAG and Strep affinity purification, NaX co-expressed with β3.

On to “ATP1A1 a-subunit (Na+/K+-ATPase alpha-1 subunit) (from UniProt P05023 1-1023) (enzyme)”, for which the #PSMs was found to be 24 PSMs and the % Coverage was determined as 21%.
